# Source: PubChem
# Cneo AK release: Cryptococcus neoformans lysis via adenylate kinase release; C. neoformans lysis, adenylate kinase release luminescence, 4 h; normalised: neutral wells 0, clomiphene wells 100; lysis activity, % at 15 µM; actives 0.2% (n = 360,000); AID 651654;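 active means mean lysis activity across replicates of at least 80%, whatever share of replicates individually reach that level; inactive means mean lysis activity below 80%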
#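 Test system: log-phase Cryptococcus neoformans yeast cells. Input: 5 × 10^6 yeast cells/mL. Medium: fresh YPD growth medium. Doses: single dose. Incubation: static 4 h at 37 °C with compound, 1 h detection. Measured by: luminescent adenylate kinase detection reagent. Read-out: signal increase indicating cell lysis. Benchmarks: Clomiphene.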
# N-glyco inh: blocks N-linked glycosylation in D54 reporter cells; actives 0.23% (n = 360,000); reporter increase, % at 12.5 µM; D54 ERlucT glycosylation luciferase reporter, 24 h; percent of 100 nM tunicamycin response; AID 588692;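 active means mean luciferase reporter signal, scaled so untreated is 0 and the glycosylation-blocking control 100, at or above a set limit in every replicate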;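 further: luciferase carries N-glycosylation sites so blocking glycosylation raises the light; 0% = median of neutral control wells and 100% = median of 100 nM tunicamycin wells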
# Yeast UUG start: alters start codon recognition fidelity in yeast. S. cerevisiae UUG-firefly luciferase reporter, luminescence/redox ratio. AID 602363. activity score, % at 18.7 µM. hit rate 0.13% among 350,000;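 active = replicate mean at a twofold rise or more, about +100% in these data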;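 note: firefly luciferase made from a UUG start codon reports start codon fidelity; reporter light over untreated wells divided by growth signal over untreated wells; some hits fall short of that in this replicate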
# C2C12 statin: protects C2C12 myotubes from simvastatin toxicity. ATP luminescence, 48 h; scaled: DMSO 0, geranylgeraniol control 100. actives 0.78% (n = 330,000). rescue of ATP level, % at 7.49 µM;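 active means mean ATP rescue above about 67%, or every replicate alone reaching that limit, limit read from the data, passing the limit was not always enough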;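 further: myotubes were challenged with 10 µM simvastatin during compound exposure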
# miR-122 sensor: inhibitors of miR-122 in Huh7 cells; Huh7 miR-122 Renilla luciferase sensor, 48 h; neutral wells = 0, positive control = 100; activation (reporter increase), % at 12.5 µM; actives 0.3% (n = 340,000); AID 602342;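 active means mean replicate activation score at least 90 and every replicate individually at or above 90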;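 further: higher luciferase means less miR-122 activity so hits act as miR-122 inhibitors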
# Numbers without * were called inactive; x = no result given; [ ] = another dose, or the depositor's remark. Sampled rows, rich in hits. Any-hit rate of the full collection: about 1.2%.
nr | SMILES | Cneo AK release | N-glyco inh | Yeast UUG start | C2C12 statin | miR-122 sensor
1 | C[C@@H]1CN([C@H](C)CO)C(=O)c2cc(C#Cc3cccnc3)cnc2O[C@@H]1CN(C)S(C)(=O)=O | -3 | x | -6 | -6 | 1[16.7 µM]
2 | Cc1ccc(-n2nc(C)c(NC(=O)CCl)c2C)cc1 | -1 | 55* | -23 | -6 | -3
3 | Cc1ccc(-c2cc(NC(=O)CCl)n(-c3ccccc3)n2)cc1 | 5 | 21 | 10 | -10 | -1
4 | CCC(CC)C(=O)c1c[nH]c(C(=O)NCC2CCCO2)c1 (stereo not drawn) | 5 | 1 | -2 | 107* | -1
5 | CC(=O)c1c[nH]c(C(=O)NCC2CCCO2)c1 (stereo not drawn) | 0 | 1 | -20 | -2 | -5
6 | CCC(=O)Nc1ccc2c(c1)C(=O)N(C)[C@@H]1CC[C@@H](CC(=O)NCc3ccccc3Cl)O[C@@H]1CO2 | 1 | x | 6 | 2 | -2[16.7 µM]
7 | CNC[C@@H]1OCCCC[C@@H](C)Oc2ccc(NS(C)(=O)=O)cc2C(=O)N([C@H](C)CO)C[C@H]1C | 0 | x | 19 | -19 | 2[16.7 µM]
8 | Cc1cc(C)c2c(c1)/C(=N/NS(=O)(=O)c1ccccc1)CCC2 | 2 | -1 | -7 | 136* | 1
9 | Cc1cc(C)c2c(c1)/C(=N/NS(=O)(=O)c1ccc(Br)cc1)CCC2 | 5 | -2 | -16 | 18 | 1
10 | CNC(=O)C[C@@H]1CC[C@@H]2[C@H](COc3ccc(NC(=O)c4cc(C)on4)cc3C(=O)N2C)O1 | 96* | x | 8 | 5 | 33[16.7 µM]
11 | COCCNC(=O)C[C@@H]1CC[C@H]2[C@@H](COc3ccc(NC(C)=O)cc3C(=O)N2C)O1 | -5 | x | -5 | -2 | 183*[16.7 µM]
12 | CCCNC(=O)C[C@H]1CC[C@H]2[C@H](COc3ccc(NC(=O)CCC)cc3C(=O)N2C)O1 | 0 | x | -11 | 2 | 13[16.7 µM]
13 | CCCNC(=O)C[C@@H]1CC[C@@H]2[C@H](COc3ccc(NC(=O)CCC)cc3C(=O)N2C)O1 | 110* | x | 15 | -34 | 44[16.7 µM]
14 | CN1C(=O)c2cc(NS(C)(=O)=O)ccc2OC[C@@H]2O[C@@H](CC(=O)O)CC[C@@H]21 | 90* | x | 5 | -66 | 35[16.7 µM]
15 | CO[C@@H]1CN(C)C(=O)c2cc(NS(=O)(=O)c3cn(C)cn3)ccc2OC[C@@H](C)N(CCC(F)(F)F)C[C@@H]1C | 0 | x | x | 17 | x
16 | COc1ccc(NC(=O)N(C)C[C@H]2Oc3ccc(NC(=O)Nc4ccc(F)cc4)cc3C(=O)N([C@H](C)CO)C[C@@H]2C)cc1 | 1 | x | 3 | -18 | -4[16.7 µM]
17 | CC(C)NC(=O)N(C)C[C@H]1Oc2ccc(NC(=O)Cc3cn(C)c4ccccc34)cc2CC(=O)N([C@H](C)CO)C[C@@H]1C | -3 | x | x | 12 | -4[16.7 µM]
18 | COc1ccc(CN(C)C[C@H]2OCCCC[C@@H](C)Oc3ccc(NS(=O)(=O)c4ccccc4)cc3C(=O)N([C@@H](C)CO)C[C@H]2C)cc1 | 1 | x | 25 | x | -1[16.7 µM]
19 | CCC(=O)N(C)C[C@@H]1Oc2cc(-c3ccc(C)cc3)ccc2S(=O)(=O)N([C@H](C)CO)C[C@H]1C | -3 | x | 4 | -15 | 3[16.7 µM]
20 | COc1cccc(C2NC(=S)NC(C)=C2C(=O)c2ccccc2)c1OC (stereo not drawn) | x | 7 | x | -36 | 147*
21 | COc1cccc(C2NC(=O)NC(C)=C2C(=O)Nc2ccc(C)cc2)c1OC (stereo not drawn) | -1 | 1 | -2 | 2 | -2
22 | C[C@H](CO)N1C[C@H](C)[C@H](CN(C)Cc2ccc(Cl)c(Cl)c2)OCCCC[C@H](C)Oc2ccc(NC(=O)Nc3ccc(F)cc3)cc2C1=O | 0 | x | -2 | x | 4[16.7 µM]
23 | Cc1c(NC(=O)C(Sc2ccccc2)c2ccccc2)cccc1[N+](=O)[O-] (stereo not drawn) | -6 | -5 | -12 | 112* | -1
24 | COc1ccccc1NC(=O)C(Sc1ccccc1)c1ccccc1 (stereo not drawn) | x | -1 | x | x | x
25 | O=C(NC1CCCc2ccccc21)c1ccc(=O)[nH]c1 (stereo not drawn) | 0 | 0 | -5 | 2 | 3
26 | CCC(C)(NC(=O)c1ccc(=O)[nH]c1)C(=O)NC1CCCC1 (stereo not drawn) | 0 | 1 | -11 | 92* | -4
27 | Cc1c(C(=O)Nc2ccc3c(c2)OCO3)sc2ncn(CC(=O)N3CC(C)CC(C)C3)c(=O)c12 (stereo not drawn) | 3 | -1 | -10 | 15 | 0
28 | NC(=O)Cn1cc(/C=N\NS(=O)(=O)c2ccc(Cl)cc2)c2ccccc21 | 4 | 0 | -5 | 18 | 128*
29 | CC(C)NC(=O)N(C)C[C@H]1Oc2ccc(NS(=O)(=O)c3ccc(Cl)cc3)cc2CC(=O)N([C@H](C)CO)C[C@H]1C | -2 | x | -4 | -25 | -1[16.7 µM]
30 | COc1ccc(NC(=O)Nc2ccc3c(c2)[C@H]2C[C@H](CC(=O)NCc4ccncc4)O[C@H](CO)[C@H]2O3)cc1 | -12 | x | -6 | -9 | 11[16.7 µM]
31 | COc1ccc(Br)cc1S(=O)(=O)Nc1ncccc1C | x | -1 | x | x | x
32 | CCOc1ccc(Br)cc1S(=O)(=O)NCCN1CCCC1 | 0 | 0 | 8 | 8 | 32
33 | O=S(=O)(NC1CCCCCC1)c1cccc(Cl)c1 | -8 | -2 | -7 | -2 | x
34 | CCOc1ccc(Br)cc1S(=O)(=O)NC1CCCC1 | -1 | -3 | -1 | -3 | 93*
35 | CCNS(=O)(=O)c1cc(Br)ccc1OC | -1 | 1 | -6 | -1 | 248*
36 | Cc1cccc(S(=O)(=O)NC2CCCCCCC2)c1 | -1 | -4 | 0 | -1 | 159*
37 | CSc1nc2ccc(S(=O)(=O)NC3CCCCC3)cc2s1 | x | -5 | x | 8 | 175*
38 | Cc1ccccc1S(=O)(=O)N1C[C@@H](O)COC[C@H]2O[C@@H](CC(=O)N3CCN(C)CC3)CC[C@@H]21 | -1 | x | 4 | 30 | 1[16.7 µM]
39 | O=C(NCc1ccccc1)[C@@H]1[C@@H](CO)[C@@H]2Cn3c(ccc(-c4cccnc4)c3=O)[C@@H]2N1Cc1cocn1 | x | x | x | 0 | x
40 | O=C(C[C@@H]1C[C@H]2c3cc(NC(=O)CC4CC4)ccc3O[C@H]2[C@@H](CO)O1)NCc1ccccc1 | -1 | x | -6 | 7 | -5[16.7 µM]
41 | COc1ccc(S(=O)(=O)NC2CCCCC2)cc1C | -1 | 1 | 10 | 16 | 137*
42 | O=C(COc1ccc(S(=O)(=O)NC2CCCCC2)cc1)NC1CCCC1 | 0 | -4 | 8 | 6 | 245*
43 | CCOC(=O)N1CCN(C(=O)COc2ccc(S(=O)(=O)NC3CCCCC3)cc2C)CC1 | 0 | 1 | 15 | 116* | 19
44 | COc1ccc(C)cc1S(=O)(=O)NC1CCCC1 | 1 | 1 | -12 | 0 | 170*
45 | COc1ccc(C(O)Cn2cc([N+](=O)[O-])nc2C)cc1 (stereo not drawn) | -6 | -1 | 2 | -7 | -5
46 | CC(=O)N(C)C[C@@H]1Oc2cc(-c3ccncc3)ccc2S(=O)(=O)N([C@@H](C)CO)C[C@@H]1C | -2 | x | -8 | 1 | -13[16.7 µM]
47 | CCN(C[C@@H]1N[C@@H](CO)[C@@H]1c1ccccc1)C(=O)c1ccncc1 | 1 | x | -7 | 7 | 0[16.7 µM]

# Entries of single compounds, quoted from the list. Screens in order: Cneo AK release	N-glyco inh	Yeast UUG start	C2C12 statin	miR-122 sensor
# CCN(C[C@@H]1N[C@@H](CO)[C@@H]1c1ccccc1)C(=O)c1ccncc1 as listed: 1	x	-7	7	0[16.7 µM]
# COc1ccc(S(=O)(=O)NC2CCCCC2)cc1C as listed: -1	1	10	16	137*
# COc1ccc(Br)cc1S(=O)(=O)Nc1ncccc1C as listed: x	-1	x	x	x
# COc1cccc(C2NC(=S)NC(C)=C2C(=O)c2ccccc2)c1OC (stereo not drawn) as listed: x	7	x	-36	147*
